Chains of the proteins cited; added tags and fusions are not shown.
UniProt P70627, whole entry: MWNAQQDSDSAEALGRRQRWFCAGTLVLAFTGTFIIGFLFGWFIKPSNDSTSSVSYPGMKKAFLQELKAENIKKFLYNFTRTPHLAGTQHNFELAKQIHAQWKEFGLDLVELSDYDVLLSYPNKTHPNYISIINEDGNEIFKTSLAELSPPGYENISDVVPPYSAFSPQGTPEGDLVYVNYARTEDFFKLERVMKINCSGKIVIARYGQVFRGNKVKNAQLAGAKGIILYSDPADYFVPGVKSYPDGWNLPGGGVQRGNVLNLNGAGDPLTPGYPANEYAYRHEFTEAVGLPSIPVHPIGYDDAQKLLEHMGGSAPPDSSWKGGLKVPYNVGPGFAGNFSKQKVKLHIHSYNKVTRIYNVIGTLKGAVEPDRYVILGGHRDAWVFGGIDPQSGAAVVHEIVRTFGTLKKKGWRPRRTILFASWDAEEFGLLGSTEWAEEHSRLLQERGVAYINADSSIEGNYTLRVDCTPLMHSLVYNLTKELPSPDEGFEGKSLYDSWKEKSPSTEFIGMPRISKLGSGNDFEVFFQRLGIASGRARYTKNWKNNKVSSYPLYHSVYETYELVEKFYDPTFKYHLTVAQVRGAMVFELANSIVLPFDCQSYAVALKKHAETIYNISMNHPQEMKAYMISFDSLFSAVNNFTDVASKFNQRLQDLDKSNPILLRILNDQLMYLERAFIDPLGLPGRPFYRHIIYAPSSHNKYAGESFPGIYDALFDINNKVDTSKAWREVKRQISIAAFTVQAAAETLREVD

According to US7381745B2, “Ligands for metabotropic glutamate receptors and inhibitors of NAALADase” (Georgetown University, priority 1999, dated 2008):

Molecular target: T1, rat GCPII (Rattus norvegicus, UniProt P70627)
T1 construct: expressed in transfected cells
Experiment: Inhibition of rat GCPII stably expressed in CHO cells
Assay type: biochemical
Details: read-out: inhibition of expressed rat GCPII

**Q.** How did the inhibition at 100 µM turn out when O=C(O)CC[C@@H](NC(=O)N[C@H](CCC(=O)O)C(=O)O)C(=O)O [FN13] was run?
**A.** 67%
